Results from patent publication US8921373B2, “Compounds having TRPV1 antagonistic activity and uses thereof” (Shionogi & Co., Ltd., priority 2010, dated 2014).
pIC50: −log10 of the molar value.

The chains behind the UniProt entries cited, without tags or fusion partners.
UniProt Q8NER1, whole entry: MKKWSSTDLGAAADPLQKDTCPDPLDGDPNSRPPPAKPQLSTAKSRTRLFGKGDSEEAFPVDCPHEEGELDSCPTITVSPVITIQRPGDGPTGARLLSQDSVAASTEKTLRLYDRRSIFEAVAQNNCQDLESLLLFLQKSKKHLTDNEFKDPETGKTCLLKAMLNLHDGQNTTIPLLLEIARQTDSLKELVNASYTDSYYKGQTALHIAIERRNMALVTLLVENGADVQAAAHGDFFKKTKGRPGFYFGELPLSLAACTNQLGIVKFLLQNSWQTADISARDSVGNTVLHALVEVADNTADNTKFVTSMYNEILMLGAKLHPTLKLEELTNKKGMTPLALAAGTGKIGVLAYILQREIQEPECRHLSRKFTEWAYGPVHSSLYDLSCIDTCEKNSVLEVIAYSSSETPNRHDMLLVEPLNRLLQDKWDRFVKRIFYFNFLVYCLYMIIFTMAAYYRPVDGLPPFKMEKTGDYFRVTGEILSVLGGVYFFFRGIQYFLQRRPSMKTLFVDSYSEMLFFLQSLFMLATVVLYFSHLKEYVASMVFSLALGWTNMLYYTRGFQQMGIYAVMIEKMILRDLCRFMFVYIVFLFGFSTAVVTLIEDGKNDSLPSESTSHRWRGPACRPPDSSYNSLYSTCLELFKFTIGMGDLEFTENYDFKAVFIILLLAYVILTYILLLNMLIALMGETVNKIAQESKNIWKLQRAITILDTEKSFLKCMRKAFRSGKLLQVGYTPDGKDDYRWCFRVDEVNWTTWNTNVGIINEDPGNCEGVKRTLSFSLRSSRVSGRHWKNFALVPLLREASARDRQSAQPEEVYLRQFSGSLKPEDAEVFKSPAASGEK

Molecular target: human recombinant TRPV1 (Homo sapiens (Human), UniProt Q8NER1)
Assay: TRPV1 pH-Based Assay (Protocol 2, Ca2+ response in TRPV1/CHO cells, Fura-2)
Assay type: cell-based
Details: pH 5.0-5.1, comparative compounds without the substituted alkyl group, read-out: TRPV1 IC50 Potency (pH-Based Assay), Comparative compound IC50
Experimental: For Protocol 2, a Chinese Hamster Ovary cell line (CHO) that has been engineered to constitutively express human recombinant TRPV1 was used (TRPV1/CHO cells). The TRPV1/CHO cell line was generated as described below.
TRPV1/CHO cells were seeded in the 96-well clear-bottom black-wall plate (Nunc) at densities of 1-2×10^4 cells/well and grown in 100 μL of culture medium (alpha-MEM supplemented with 10% FBS, 20 mM HEPES, 1 mg/mL geneticin and 1% antibiotic-antimycotic mixed stock solution) for 1-2 days before the experiment.
(2) The 96-well plate was incubated at 37° C. for 45 min.
(3) The loading buffer was removed from each well. […] The wells were then refilled with 80 μL of measuring buffer. […]
(5) The Fura-2 fluorescent intensity was monitored at a wavelength of 340 nm and at 380 nm, respectively, at a rate of 0.5 Hz for a total of 240 seconds. […]
(6) Fluorescence intensity ratio refers to the fluorescence intensity at 340 nm over the fluorescence intensity at 380 nm at a particular time point. […]
(7) Maximal signal ratios from each well were calculated as output data using the FDSS-3000 analysis program. Data were analyzed using Excel (Microsoft) and XLfit (idbs) software.
Two different agonist solutions with different H2SO4 concentrations were used for the pH assay (FIG. 3A). […] The concentrations for the two agonist solutions were determined as described above in Section 2 of Protocol 2. […]

Compound O=C(Nc1ccc(C(F)(F)F)cc1)N1CC=C(c2ncccc2Cl)CC1 [reference compound] has a pIC50 of 7.49.
